The source of these data is US7776917B2, “Non-standard amino acid conjugates of amphetamine and processes for making and using the same” (priority 2006, dated 2010).

Like-named read-outs stand apart in the source and are kept apart here.

The conditions of data set [1]: oral, n=5; released d-amphetamine in plasma.
Data set [2] is described as follows: Oral PK study Lys-Amp, hArg-Amp, Orn-Amp, Cit-Amp (Example 9). The settings on record: in words.
Data set [3] is described as follows: Average results of 4 oral PK studies, Lys-Amp vs hArg-Amp (Example 7). The settings on record: average of 4 oral studies, n=20 per compound; released d-amphetamine.
Data set [4] can be described thus: Oral gavage PK study, plasma d-amphetamine by ELISA, Lys-Amp vs hArg-Amp (Example 7). Particulars: […] d-amphetamine freebase equivalent, n=5, released d-amphetamine in plasma. (An ELISA detects its analyte on a solid surface through an enzyme-linked reagent.)

By Tmax is commonly meant the time from dosing to the highest level. Consider `C[C@@H](Cc1ccccc1)NC(=O)[C@@H](N)CCCCN=C(N)N.Cl.Cl` [hArg-Amp, l-homoarginine-d-amphetamine Dihydrochloride], for which the Tmax in data set [1], in data set [3] and in data set [4] was 4 h each time. Moreover, the “Tmax compared to Lys-Amp” value in data set [2] is listed as “significantly shifted the Tmax”.
